Measurements: PubChem BioAssay AID720508 (The Scripps Research Institute Molecular Screening Center, 2013)
The list shows a part of the results, in another mix than the full data. Active and inactive are the calls of the source.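 Rule for the calls: active = inhibition above the mean of compounds falling within the control limits plus 3 SD of them (cut at about 14% in these data); inactive = the rest.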

The chains behind the UniProt entries cited, without tags or fusion partners. Where a name states a change or a piece, a line headed by the entry shows the natural chain unless it says otherwise.
UniProt P02675: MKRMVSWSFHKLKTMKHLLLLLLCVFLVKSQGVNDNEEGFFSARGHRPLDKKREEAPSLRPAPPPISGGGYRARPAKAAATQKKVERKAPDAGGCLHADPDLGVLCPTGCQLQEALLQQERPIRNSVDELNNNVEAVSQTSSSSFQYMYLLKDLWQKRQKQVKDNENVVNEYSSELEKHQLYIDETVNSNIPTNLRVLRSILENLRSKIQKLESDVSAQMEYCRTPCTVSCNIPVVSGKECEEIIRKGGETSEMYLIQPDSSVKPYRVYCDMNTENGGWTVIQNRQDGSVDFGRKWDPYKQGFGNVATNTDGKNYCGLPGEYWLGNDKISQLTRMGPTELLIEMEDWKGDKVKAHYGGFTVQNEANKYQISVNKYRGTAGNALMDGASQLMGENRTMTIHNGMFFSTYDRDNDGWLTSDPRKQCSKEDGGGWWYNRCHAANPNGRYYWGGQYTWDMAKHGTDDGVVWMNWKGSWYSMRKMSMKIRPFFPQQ

Each compound was assayed against Fibrinogen beta chain (Homo sapiens) (UniProt P02675) (assay: small molecules displacing Tn7 from DD(E) complex – biochemical, fluorescence polarization, human fibrin, Tn7 probe, primary screen (AID 720508;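 note: 0% = plate median of compound wells and 100% = 10 µM Aha-Tn7 peptide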)). Conditions: FP displacement of FITC-Tn7 peptide from fibrin DD(E); at 8.3 µM; active compounds read high; 0% = median of compound wells per plate.
With `O=C(O)c1ccccc1[As](=O)(O)O` the inhibition was inactive: -1.98%.
`CCCC1OP(N)(=O)OCC1CC` (stereo not drawn) was tested, and the inhibition was inactive: 2.87%.
`Nc1cccc2ccc([As](=O)(O)O)cc12` was tested, and the inhibition was inactive: -0.16%.
In the case of `CN(C(=O)Cc1ccccc1)C1CC[C@@]2(CCCO2)C[C@@H]1N1CCCC1` (stereo partly drawn), the inhibition is reported as inactive: -5.14%.
For `CCN(N=Nc1nonc1N)c1nonc1N`, the inhibition was inactive: -1.32%.
With `CN1CCCC(OC(=O)C(c2ccccc2)c2ccccc2)C1` (stereo not drawn) the inhibition was inactive: 4.95%.
For `Clc1ccc(Cl)c(NC2=NCC(CBr)S2)c1` (stereo not drawn), the inhibition was inactive: 4.42%.
`COc1ccccc1OP(=O)(Nc1ccc(C)cn1)Oc1ccccc1OC` was tested, and the inhibition was inactive: 2.26%.
For `Cc1ccc(OP(=O)(Nc2nccs2)Oc2ccc(C)cc2)cc1`, the inhibition was inactive: -4.65%.
In the case of `Cc1ccc(N/C(=N/P(=O)(N2CCOCC2)N2CCOCC2)N2CCOCC2)cc1`, the inhibition is reported as inactive: 1.08%.
With `NC(=O)c1cc([N+](=O)[O-])cc([N+](=O)[O-])c1N` the inhibition was inactive: -1.97%.
`Oc1ccccc1CNc1ccccn1` was tested, and the inhibition was inactive: -1.66%.
For `O=C(NC(Sc1ccncn1)C(Cl)(Cl)Cl)c1ccccc1` (stereo not drawn), the inhibition was inactive: 2.32%.
`Nc1cc(N)c2nonc2c1[N+](=O)[O-]` was tested, and the inhibition was inactive: -0.87%.
In the case of `CC(C)CC(=O)NC(Sc1ccc(Cl)cc1)C(Cl)(Cl)Cl` (stereo not drawn), the inhibition is reported as inactive: 6.18%.
In the case of `Cc1ccc(NP(=O)(Oc2ccccc2)Oc2ccccc2)nc1`, the inhibition is reported as inactive: -12.4%.
`O=[N+]([O-])c1cc([N+](=O)[O-])c(CCNc2ccccc2)c([N+](=O)[O-])c1` was tested, and the inhibition was inactive: 0.2%.
`CCc1nc2c(n1)c1c(non1O)c1c2no[n+]1[O-]` was tested, and the inhibition was inactive: 1.61%.
For `CC(=O)N1C2C3N(C(C)=O)C1C1N(C(C)=O)C(C(N1C(C)=O)N3C(C)=O)N2C(C)=O`, the inhibition was inactive: -8.55%.
For `O=[N+]([O-])c1cccc2n[nH]nc12`, the inhibition was inactive: 10.2%.
In the case of `COc1ccc(C2=NCC(CBr)S2)cc1` (stereo not drawn), the inhibition is reported as inactive: 0.19%.
With `CC1CCN(C(=O)Oc2c(Cl)cc(Cl)c3cccnc23)CC1` the inhibition was inactive: -3.26%.
In the case of `c1cc(-c2nn[nH]n2)ccc1-c1nn[nH]n1`, the inhibition is reported as inactive: -1.39%.
For `CC(C)c1nc(Nc2ccccc2)n(P(=O)(N(C)C)N(C)C)n1`, the inhibition was inactive: -8.64%.
For `CC(C)=N/N=C(\N)N[N+](=O)[O-]`, the inhibition was inactive: -1.86%.
For `CN(C)C(=O)OCCc1n(C)cc[n+]1C`, the inhibition was inactive: -0.19%.
For `CCN(/C(=N/P(=O)(N1CCOCC1)N1CCOCC1)N1CCOCC1)c1ccc(OC)cc1`, the inhibition was inactive: 2.27%.
With `Nc1ccc([As](=O)(O)c2ccc(N)cc2)cc1` the inhibition was inactive: -0.83%.
In the case of `C[N+]1=C2C=CC=CC=C2SC12C([N+](=O)[O-])=CC([N+](=O)[O-])=C[C-]2[N+](=O)[O-]` (stereo not drawn), the inhibition is reported as inactive: -3.14%.
In the case of `O=C(Nc1cc([As](=O)(O)O)ccc1O)c1ccccc1`, the inhibition is reported as inactive: -1.61%.
In the case of `O=P1(N(CCCl)CCCl)OCCCS1` (stereo not drawn), the inhibition is reported as inactive: -4.29%.
With `O=C(O)CNc1ccc([As](=O)(O)O)cc1` the inhibition was inactive: -0.23%.
`COC(=O)C1(C)COP(=O)(Nc2ccccc2)OC1` (stereo not drawn) was tested, and the inhibition was inactive: 6.35%.
In the case of `O=[N+]([O-])c1cccc(NC2=NCC(CBr)S2)c1` (stereo not drawn), the inhibition is reported as inactive: -0.79%.
In the case of `O=[N+]([O-])c1ncn(CCn2ncnc2[N+](=O)[O-])n1`, the inhibition is reported as inactive: 2.89%.
`CC(C)(C)C(=O)NC(Sc1ccncn1)C(Cl)(Cl)Cl` (stereo not drawn) was tested, and the inhibition was inactive: -5.94%.
For `O=P(Nc1nc2ccccc2s1)(c1ccccc1)c1ccccc1`, the inhibition was inactive: -2.12%.
`C[C@H]1OP(=O)(Oc2ccccc2)[C@H](O)[C@H](O)[C@H]1N=[N+]=[N-]` (stereo partly drawn) was tested, and the inhibition was inactive: -2.59%.
For `CN(C)C1(CNC(=O)c2ccc(Cl)c(S(N)(=O)=O)c2)CCCCC1`, the inhibition was inactive: -4.5%.
For `O=P(Nc1ccccn1)(c1ccc(Br)cc1)c1ccc(Br)cc1`, the inhibition was inactive: -1.43%.
`COc1ccc(N)c([N+](=O)[O-])c1[N+](=O)[O-]` was tested, and the inhibition was inactive: 5.53%.
`Nc1ccc(CCCCOc2ccccc2)cc1` was tested, and the inhibition was inactive: -4.28%.
With `O=C(OC1CN2CCC1CC2)c1cccc(Cl)c1` (stereo not drawn) the inhibition was inactive: -2.49%.
With `C/C(N)=N\P(=O)(OCc1ccccc1)OCc1ccccc1` the inhibition was inactive: -0.48%.
For `C(Cc1nn[nH]n1)Cc1nn[nH]n1`, the inhibition was inactive: 8.46%.
`Nc1ccc([As](=O)(O)c2ccc([N+](=O)[O-])cc2)cc1` was tested, and the inhibition was inactive: -9.78%.
With `O=[As](O)(c1ccccc1)c1ccc(O)cc1` the inhibition was inactive: -9.66%.
In the case of `O=[N+]([O-])c1ncn(CCn2cnc([N+](=O)[O-])n2)n1`, the inhibition is reported as inactive: 2.41%.
With `CC(=O)NC(SC(=S)N(C)C)C(Cl)(Cl)Cl` (stereo not drawn) the inhibition was inactive: 5.12%.
`c1nnnn1CCn1cnnn1` was tested, and the inhibition was inactive: -4.62%.
For `O=P(Nc1nccs1)(c1ccccc1)c1ccccc1`, the inhibition was inactive: -4.94%.
In the case of `CC(C)C(=O)NC(Sc1ccccc1)C(Cl)(Cl)Cl` (stereo not drawn), the inhibition is reported as inactive: 4.99%.
In the case of `CC(C)(C)C(=O)NC(Sc1ccccc1)C(Cl)(Cl)Cl` (stereo not drawn), the inhibition is reported as inactive: -4.41%.
`CCc1cc(O)c([N+](=O)[O-])c(C)c1[N+](=O)[O-]` was tested, and the inhibition was inactive: 0.74%.
In the case of `O=P1(Nc2nc3ccc(Cl)cc3s2)COc2ccccc2O1` (stereo not drawn), the inhibition is reported as inactive: -0.43%.
`CCOc1ccc(C2=NCC(CBr)S2)cc1` (stereo not drawn) was tested, and the inhibition was inactive: -6.89%.
In the case of `CC(=O)Nc1ccc([As](=O)(O)O)c(O)c1`, the inhibition is reported as inactive: 1.57%.
For `CC(=O)Nc1ccc(Oc2c([N+](=O)[O-])cc([N+](=O)[O-])cc2[N+](=O)[O-])cc1`, the inhibition was inactive: 1.28%.
For `Cc1ccccc1CN(C)C(=O)COC(=O)C(O)(c1ccccc1)c1ccccc1`, the inhibition was inactive: -4.69%.
`C[C@H]1OP(=O)(Oc2ccccc2)C[C@@H]2O[C@@H]21` (stereo partly drawn) was tested, and the inhibition was inactive: -1.99%.
With `C[C@@H]1C=CCP(=O)(Oc2ccccc2)O1` (stereo partly drawn) the inhibition was inactive: 1.62%.
With `CC(=O)c1ccc(N2CC2c2ccncc2)cc1` (stereo not drawn) the inhibition was inactive: -3.38%.
With `N#C/C(=C\c1ccc(N(CCBr)CCBr)cc1)C(N)=O` the inhibition was inactive: -6.13%.
`COC(=O)C1(C)COP(=O)(NCc2ccccc2)OC1` (stereo not drawn) was tested, and the inhibition was inactive: 4.72%.
With `O=P1(N(CCCl)CCCl)OCCC2CCCCN21` (stereo not drawn) the inhibition was inactive: -0.31%.
With `c1ccc(-c2nn[nH]n2)c(-c2nn[nH]n2)c1` the inhibition was inactive: 0.98%.
In the case of `Cc1ccc(NP(=O)(Oc2cccc(C)c2)Oc2cccc(C)c2)nc1`, the inhibition is reported as inactive: 4.25%.
For `O=C(NC1CCS(=O)(=O)C1)NP(=S)(Oc1ccccc1)Oc1ccccc1` (stereo not drawn), the inhibition was inactive: -0.34%.
For `CCNC(=S)/N=C(\N)N[N+](=O)[O-]`, the inhibition was inactive: 6.53%.
`CC(NC(=O)COC(=O)C(O)(c1ccccc1)c1ccccc1)c1ccccc1` (stereo not drawn) was tested, and the inhibition was inactive: -6.97%.
`Cc1ccccc1OP(=O)(Nc1ccccn1)Oc1ccccc1C` was tested, and the inhibition was inactive: 3.07%.
For `O=c1c2cc([N+](=O)[O-])ccc2[nH]c2c([N+](=O)[O-])cc([N+](=O)[O-])cc12`, the inhibition was inactive: -0.02%.
In the case of `CN(C)C(=O)Oc1noc2ccccc12`, the inhibition is reported as inactive: -4.05%.
For `O=C(OC1CN2CCC1CC2)c1ccccc1` (stereo not drawn), the inhibition was inactive: 0.23%.
With `CCC(=O)N1C2C3N(C(=O)CC)C1C1N(C(=O)CC)C(C(N1C(=O)CC)N3C(=O)CC)N2C(=O)CC` the inhibition was inactive: -1.6%.
In the case of `COC(=O)c1cc2c(s1)N=C(c1ccccc1)N(C)P2(=O)N1CCOCC1` (stereo not drawn), the inhibition is reported as inactive: 0.87%.
With `Cc1ccc(OP(=O)(Nc2ccccn2)Oc2ccc(C)cc2)cc1` the inhibition was inactive: -1.26%.
With `CC(=O)NC(SC(=S)N(CC(C)C)CC(C)C)C(Cl)(Cl)Cl` (stereo not drawn) the inhibition was inactive: -1.11%.
